Source: PubChem BioAssay
p53 reactivation – restores transcriptional activity of mutant p53; H1299 p53-A138V BP100-luciferase reporter, luminescence, 24 h; Potency, µM (titrated, usually from 92.2 µM), for inactives: at the highest dose activity change, positive = activation, usual class: activators; 0.063% of 320,000 active; AID 504706; also: potency is read from the fitted curve at half-maximal effect; % of control where 0% means no effect; nearly all actives have a fitted effect of over 45% in size
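p53-null H1299 cells stably carrying temperature-sensitive p53-A138V and a BP100-luciferase reporter were pinned with compounds (4-point, 1:5 series) and held 24 hrs at 37 deg C. Luminescence was read 10 min after detection reagent.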
IL2 activator – IL-2 activation; activation, % (series mostly up to about 46 µM); 0.065% of 360,000 active; IL-2 activation reporter assay, cell-based qHTS; stimulated with anti-CD3/CD4/CD28 beads; in transgenic mouse T cells; in the data active = activation above about 50%; inconclusive = mostly about 30% to 49%; also: 0% is about no effect
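Unstimulated transgenic mouse T cells; 60-min compound exposure; bead-based TCR/CD4/CD28 stimulation; 18 h culture, 37 degrees C; dual fluorescence (EGFP, DsRed) plate cytometry.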
miR-21 reporter – miR-21 reporter, rising signal; HeLa miR-21 FLuc reporter, luciferase, 48 h; Potency, µM (doses to about 38.3 µM), for inactives: at the highest dose reporter change, positive = more light; 340,000 tested, under 10 active; AID 2288; active = well fitted rising curve with a large enough effect; inconclusive = small, poorly fitted or top-dose-only effect; inactive = no such curve, though single readings can be large or run the other way;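 further: % of control where 0% means no effect; miR-21 action dims this reporter so a rising signal means less miR-21 action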
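Using DMEM plus 10% FBS, HeLa miR-21-FLuc cells are incubated with test compounds (final up to about 40uM) for 48 hours; firefly luciferase signal is then imaged following reagent-mediated lysis.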
PINK1 expr mod – modulators of PINK1 expression; 0.2% of 410,000 active; AID 624263; PINK1 immunofluorescence, high-content cytometry, 24 h; Potency, µM (series often up to 76.6 µM), without a hit: at the highest dose activation (PINK1 increase), usual class: activators; active = well fitted activation curve with a large enough effect; inconclusive = small, poorly fitted or top-dose-only effect; cell line not stated here; also: potency is read from the fitted curve at half-maximal effect; % of control where 0% means no effect; nearly all actives have a fitted effect of over 65% in size
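Stable cell line, 250 cells/well, 12 h attachment; compounds pinned at 5 concentrations, 24 h; CCCP control. Fixed with nuclear dye, primary antibodies 12 h at 10 degrees C, secondary plus cell stain; laser-scanning cytometer read.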
uPA surface inh – inhibitors of cell surface uPA generation; AID 540303; 0.31% of 330,000 active; cell surface uPA generation assay, qHTS; Potency, µM (doses to about 38.3 µM), for the others: at the highest dose activity change, negative = inhibition, hits mostly inhibitors; active = well fitted inhibition curve with a large enough effect; inconclusive = small, poorly fitted or top-dose-only effect; inactive = no such curve, though single readings can be large or run the other way; tested in mouse RAW 264.7 cells; also: potency is read from the fitted curve at half-maximal effect; % is scaled to controls: 0 for no effect and ±100 for the full control effect; nearly all actives have a fitted effect of over 55% in size
Epigenetic derep – derepresses silenced GFP reporter in murine cells; murine LDR cells, GFP reporter derepression, 30 h; Potency, µM (top dose mostly 53.9 µM), for the others: at the top dose GFP activation, usual class: activators; 0.2% of 280,000 active; AID 1865; also: potency is read from the fitted curve at half-maximal effect; % of control where 0% means no effect; nearly all actives have a fitted effect of over 60% in size
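Reporter derepression read as number of fluorescent GFP-positive objects, 20-120 um in size, counted by laser-scanning cytometer. Mouse LDR line with an epigenetically silenced CMV-GFP locus; compound incubation 30 h, 37 C.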
Starred values were filed as active, the others as inactive; u = inconclusive; x = not tested or not shown. Sampled rows, rich in hits. Any-hit rate of the full collection: about 0.62%. Unless noted, calls follow the shape of the dose curve; as a rule, active = well fitted curve in the direction sought with a large enough effect; inconclusive = small, poorly fitted or top-dose-only effect, or another doubt; inactive = no such curve, though single readings can be large; an effect the other way counts as inactive or inconclusive.

Start of the listing, in advance (two entries):
p53 reactivation,IL2 activator,miR-21 reporter,PINK1 expr mod,uPA surface inh,Epigenetic derep,structure
x,x,x,27%,x,x,COCCn1c(=O)c(CCc2ccccc2)nc2cnc(Nc3cccc(OC)c3)nc21
x,x,x,2.5µM*,x,x,COc1ccc(Nc2ncc3nc(-c4cccs4)c(=O)n(Cc4cccc(OC)c4)c3n2)cc1

The list itself, from the first entry:
p53 reactivation,IL2 activator,miR-21 reporter,PINK1 expr mod,uPA surface inh,Epigenetic derep,structure
x,x,x,27%,x,x,COCCn1c(=O)c(CCc2ccccc2)nc2cnc(Nc3cccc(OC)c3)nc21
x,x,x,2.5µM*,x,x,COc1ccc(Nc2ncc3nc(-c4cccs4)c(=O)n(Cc4cccc(OC)c4)c3n2)cc1
x,x,x,0%,x,x,COCCn1c(=O)c(-c2cccc(C#N)c2)nc2cnc(Oc3ccccc3)nc21
x,x,x,28µM*,x,x,COc1cccc(Nc2ncc3nc(CCc4ccccc4)c(=O)n(Cc4cccs4)c3n2)c1
x,x,x,25µM*,x,x,COCCn1c(=O)c(-c2cccc(C#N)c2)nc2cnc(Nc3ccccc3)nc21
x,x,x,1%,x,x,O=CC(=O)c1ccc(F)cc1
x,x,x,25µM*,x,x,COc1ccc(-c2nc3cnc(Nc4cccc(OC)c4)nc3n(C[C@H]3CCCO3)c2=O)cc1
x,x,x,-1%,x,x,Cc1ccc(-c2ccnc(-n3ncc(C(=O)N4CCCCC4c4cccnc4)c3C3CC3)n2)o1 (stereo not drawn)
u,-2,-63%,11µM*,-2%,2%,Cn1c(NC(=O)c2cccc(Cn3cc(Cl)cn3)c2)nc2ccccc21
-26%,0,-9%,0%,10µM*,x,COc1cccc(NC(=O)c2cnn(-c3ccccc3)c2C)c1
12%,-4,24%,-1%,-5%,4.5µM*,COc1ccc(CNC(=O)c2ccc(Cn3nc(C)c([N+](=O)[O-])c3C)o2)cc1
x,-2,3%,1%,u,x,COc1ccc(N2CCN(C(=O)c3ccc(Cn4nc(C)c([N+](=O)[O-])c4C)o3)CC2)cc1
x,x,x,1%,x,x,COc1cccc(-c2nc3cc4c(cc3cc2CN(C(=O)c2csc(C)n2)C2CC2)CCC4)c1OC
3%,1,x,9%,4µM*,-2%,Cc1ccccc1/C=C/C1=NCCN1
0%,61*,-15%,17%,-4%,2%,CCOC(=O)c1ccc(-c2ccc(/C=C(\C#N)C(=O)NCc3cccs3)o2)cc1
-22%,0,24%,u,u,u,Cc1ccc(/C(C#N)=C\c2ccc(N3CCOCC3)o2)cc1
u,u,-53%,11µM*,-6%,14µM*,Cc1ccc2nc(/C(C#N)=C\c3ccc(N4CCOCC4)o3)[nH]c2c1
x,x,-18%,22%,x,7.9µM*,N#C/C(=C\c1ccc(-c2ccc(F)cc2F)o1)c1nc2ccccc2[nH]1
9%,3,-10%,2%,0%,0%,N#C/C(=C\c1ccc(-c2ccccc2C(=O)O)o1)c1nc2ccccc2[nH]1
x,x,-7%,2%,x,u,CCOC(=O)c1ccc(-c2ccc(/C=C(\C#N)C(=O)Nc3cccc(C)c3)o2)cc1

Limited to PINK1 expr mod and miR-21 reporter, for some of the entries so far:
smiles	PINK1 expr mod	miR-21 reporter
N#C/C(=C\c1ccc(-c2ccc(F)cc2F)o1)c1nc2ccccc2[nH]1	22%	-18%
Cc1ccc2nc(/C(C#N)=C\c3ccc(N4CCOCC4)o3)[nH]c2c1	11µM*	-53%
COCCn1c(=O)c(CCc2ccccc2)nc2cnc(Nc3cccc(OC)c3)nc21	27%	x
Cn1c(NC(=O)c2cccc(Cn3cc(Cl)cn3)c2)nc2ccccc21	11µM*	-63%

(continued)
p53 reactivation,IL2 activator,miR-21 reporter,PINK1 expr mod,uPA surface inh,Epigenetic derep,structure
0%,9,0%,u,u,1µM*,Cc1ccc2nc(/C(C#N)=C\c3ccc([N+](=O)[O-])o3)[nH]c2c1
x,x,x,-1%,x,x,Cc1cc(C)c(C(=O)NCc2nc(-c3cccc(NC(=O)C4CCCN(C)C4)c3)oc2C)[nH]1 (stereo not drawn)
x,x,-42%,6%,x,1.6µM*,CCOC(=O)c1ccc(-c2ccc(/C=C(\C#N)c3nc4ccc(C)cc4[nH]3)o2)cc1
-41%,0,u,2%,u,2.8µM*,N#C/C(=C\c1ccc([N+](=O)[O-])o1)c1nc2ccccc2[nH]1
u,4,-40%,14µM*,-3%,1%,Cc1cc2nc3c(=O)n(C4CCCCC4)c(=O)[nH]c3nc2cc1N
x,x,x,0%,x,x,O=C(NCCc1nnc2n1CCN(Cc1c(F)cccc1F)CC2)c1ccc(F)cc1
2%,1,26%,-1%,u,1%,COc1ccc2sc(N(CCN(C)C)C(=O)/C=C/c3cccs3)nc2c1
-3%,0,u,9%,10µM*,1%,COc1ccc2nc(N(CCN(C)C)C(=O)/C=C/c3cccs3)sc2c1
x,x,x,1%,x,x,CCC1(C2CCN(C(=O)c3cc(C)cc(C)c3)CC2)NC(=O)N(CCc2scnc2C)C1=O (stereo not drawn)
